## Measured affinities in a library of Ab-14 light chain variants

From the AlphaSeq antibody data of Li et al. 2023 (doi:10.1038/s41467-023-39022-2), copy in the FLAb collection.

Target peptide (SARS-CoV-2 spike, HR2 region): PDVDLGDISGINAS

Ab-14 is the parent antibody, in scFv form: VH, then three GGGGS repeats, then VL. The heavy chain is unchanged in all variants.
VH: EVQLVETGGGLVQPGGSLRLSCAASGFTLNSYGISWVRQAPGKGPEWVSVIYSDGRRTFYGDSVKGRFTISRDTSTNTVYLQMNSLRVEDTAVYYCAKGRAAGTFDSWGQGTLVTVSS
VL: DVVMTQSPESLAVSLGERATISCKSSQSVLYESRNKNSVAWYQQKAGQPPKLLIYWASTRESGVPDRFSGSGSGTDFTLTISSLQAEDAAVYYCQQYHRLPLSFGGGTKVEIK

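Phage display of a naive human antibody library on the peptide gave the parent. Designed CDR sequences, proposed from the first random library and measured here. Several design methods are mixed in this list. AlphaSeq pools MATa yeast showing the antibodies with MATalpha yeast showing the peptide. The frequency of each diploid, read from paired DNA barcodes, reflects how well the two displayed proteins bind. A regression on co-assayed BCL2-family reference pairs converts the normalised counts of each replicate to an apparent Kd. Each pool was mated in six replicate cultures.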

Each variant is given by its three light chain CDRs, as the data file delimits them; those of the parent are KSSQSVLYESRNKNSVA, WASTRES, QQYHRLPLS.
Values are log10 of the apparent Kd in nM; lower means stronger binding.
Averages over replicates are reported, and they cover detected replicates only.
An entry "nd" has no value in the source: the pair was not observed among the diploids in any replicate. This suggests poor binding but is not conclusive.
Three control strains display no target. For all light chain designs, 4% of the pairings with them gave a signal, with a median of 2.64 and one signal in twenty below 1.59, so weak values seen in few replicates may be background. Also given: how often the same scFv was detected with the empty control strains.
In the paper, a design with two or fewer of six values counts as a poor binder.
The range of this assay differs from that of the first round, and the authors advise against merging the two.

Variant KVEQSVLEESRNKNSVA | WASTRES | QQYHRLPLS gave 0.71 (6 of 6 replicates; controls 0 of 18).
Variant KLIQSVAMSSRMKDSIA | DNSTRES | QQYHRLPLS gave 2.79 (6 of 6 replicates; controls 1 of 18).
Variant KSSQSVLYESRNKNSVA | QASCRES | QQYHRLPLN gave 1.51 (6 of 6 replicates; controls 0 of 18).
Variant RFSQTEQMGIRDYNAVA | NGSTVNT | QHYSRLPIS gave 1.61 (6 of 6 replicates; controls 3 of 18).
Variant KSSQSVLYESRNKNSVA | WDSTRES | QQYHGLPLS gave nd (0 of 6 replicates; controls 3 of 18).
Variant KLEQSDLLESRNKQSVA | NASQRER | QQYHRLPLS gave 0.03 (6 of 6 replicates; controls 0 of 18).
Variant KVYPSNLYESRNKNSVA | QASTRES | QQYHRLPLS gave -0.13 (6 of 6 replicates; controls 1 of 18).
Variant KVSQSVLGESRMKNSVA | DASTRCS | QQYHRLPLE gave -0.04 (6 of 6 replicates; controls 3 of 18).
Variant HLSQSVEGEESNKNSVA | SASTREQ | QQYHRLPLS gave 1.07 (6 of 6 replicates; controls 4 of 18).
Variant KISMSYRYESQNKNSIA | EMTRREN | QQYHRLPLS gave 0.07 (6 of 6 replicates; controls 0 of 18).
Variant QISGITGHMSMLKNNVA | EMVTREN | QQYDRLPLS gave 0.63 (6 of 6 replicates; controls 0 of 18).
Variant HVSESVLAQSKMKNSVA | ENSTRES | QQYDRLPLS gave 2.50 (5 of 6 replicates; controls 4 of 18).
Variant QLYEMNYELSGKTHSVA | DNSTRGE | QQYFRLPLD gave 1.78 (6 of 6 replicates; controls 2 of 18).
Variant KLENSNLYESRNGNSVA | NASTRLH | QQYHRLPLS gave 0.02 (6 of 6 replicates; controls 0 of 18).
Variant KLEQGVDMESRNKNSVA | HAQMRES | QQYHRLPLS gave -0.08 (6 of 6 replicates; controls 1 of 18).
Variant LIETLSQGMRLNWSAVA | EAHMLVQ | QHYARLPLS gave 1.12 (6 of 6 replicates; controls 0 of 18).
Variant KLSQSVMYESRNKNSVA | NASTRES | QDYHRLPLS gave -0.12 (6 of 6 replicates; controls 3 of 18).
Variant KLSQSMLYESRNKNSVA | NASTREV | QQYHRLPLS gave -0.18 (6 of 6 replicates; controls 0 of 18).
Variant KLSQSVLYESRNANNVA | NASTRES | QQYHRLPLS gave -0.53 (6 of 6 replicates; controls 1 of 18).
Variant KSSFSVLFESRNKNSVA | DASTRES | QQYHRLPLS gave 0.61 (6 of 6 replicates; controls 0 of 18).
Variant MISDLTGYGSRNKNSVA | DLSTRGS | QQYNRLPLS gave -0.39 (6 of 6 replicates; controls 2 of 18).
Variant KQSQEPLYESRNKNSVA | DASTRES | QQYHRLPLS gave 0.39 (6 of 6 replicates; controls 2 of 18).
Variant MMSQVTGQGTRHRNNVA | QTSEREI | QQYDRLPLI gave 0.22 (6 of 6 replicates; controls 1 of 18).
Variant KSSQSVLDESRNKNSVA | WASTRES | QQYHRLPLS gave 1.17 (6 of 6 replicates; controls 0 of 18).
Variant KSSQSVEYERRTKNSVA | SESTRES | QQYMRLLLS gave nd (0 of 6 replicates; controls 0 of 18).
Variant KFSQSVLFESRNKNSVA | DASTRES | QQYHRLPLS gave -0.38 (6 of 6 replicates; controls 0 of 18).
Variant KMWDYEYGTNAMNSAIA | NASLESD | QQYDRLPLA gave 0.99 (6 of 6 replicates; controls 1 of 18).
Variant GLSQDFYNERNQANQVA | DGNQLAN | QQYARLPLV gave 0.51 (6 of 6 replicates; controls 1 of 18).
Variant TISQLMLYETRNKNNVA | GTSTREQ | QCYHRLPLS gave 0.53 (6 of 6 replicates; controls 2 of 18).
Variant RMNKFMSEITEARNSIA | GAEHLAQ | QSYHRLPLS gave 1.16 (6 of 6 replicates; controls 1 of 18).
Variant KLSMSWEYESRNSNSVA | HASTRED | QQYHRLPLA gave 0.30 (6 of 6 replicates; controls 0 of 18).
Variant NMQLQVRSGNNNKYNIA | AEMLREY | QQYNRLPLS gave 1.05 (5 of 6 replicates; controls 0 of 18).
Variant NLSIQNQPQNMFANNVA | QTESRCE | QQYFQLPLA gave 0.80 (6 of 6 replicates; controls 0 of 18).
Variant QYSENLEIYDQEQGNVA | HGEMRTE | QQYHKLPLS gave 0.43 (6 of 6 replicates; controls 1 of 18).
Variant KSIQSVLDESRTNNSVA | WASTRES | SQYHRLPLS gave 3.22 (1 of 6 replicates; controls 1 of 18).
Variant KLMQSWLYESRNKNSVA | NASTRMS | QQYHRLPLS gave 0.22 (6 of 6 replicates; controls 0 of 18).
Variant KISQSVWYESKNKNNVA | QASTRES | QQYHRLPLS gave -0.07 (6 of 6 replicates; controls 0 of 18).